Bioassay records from PubChem BioAssay.
Most compounds without a hit are left out; they make up all but 16% or so of the library.
DT40 TDP1 no CPT – qHTS for Inhibitors of human tyrosyl-DNA phosphodiesterase 1 (TDP1): qHTS in cells in absence of CPT; 15% of 420,000 active; Potency, µM (doses to about 46.2 µM), for inactives: at the highest dose activity change, negative = growth inhibition, actives largely listed as inhibitors; DT40 Tdp1-/- hTDP1 cells, no CPT, ATP luminescence, 48 h; further: potency means the concentration at half of the fitted maximal effect; on the % scale 0 is the no-effect control and ±100 the full control effect; nearly all actives have a fitted effect of over 55% in size
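Compound effects on proliferation are scored in DT40 Tdp1-/-;hTDP1 cells in the absence of CPT. ATP levels (CellTiter-Glo luminescence) are recorded after a ≥48 hr, 37 °C incubation.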
TDP1 block – blocks human tyrosyl-DNA phosphodiesterase 1 | recombinant TDP1, AlphaScreen DNA substrate cleavage | Potency, µM (top dose mostly 130 µM), for inactives: at the highest dose activity change, negative = inhibition, actives largely listed as inhibitors | 0.28% of 350,000 active | Q9NUW8; further: potency means the concentration at half of the fitted maximal effect; on the % scale 0 is the no-effect control and ±100 the full control effect; nearly all actives have a fitted effect of over 40% in size
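Compounds were preincubated with Tdp1 (1 nM final) for 15 min at room temperature before substrate (15 nM final) started a 5 min reaction; beads (10 ug/ml final) were then added for 10 min before AlphaScreen detection.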
TDP1 cell CPT – DT40-hTDP1 cell growth loss with CPT. Potency, µM (titrated, usually from 46.2 µM), for the others: top-dose activity change, negative = growth inhibition, hits mostly inhibitors. chicken DT40 Tdp1-/-;hTDP1 cells + 20 nM CPT, ATP luminescence, 48 h. AID 686979. 12% of 420,000 active; further: potency means the concentration at half of the fitted maximal effect; on the % scale 0 is the no-effect control and ±100 the full control effect; nearly all actives have a fitted effect of over 55% in size
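Chicken DT40 Tdp1-/- cells stably complemented with human TDP1 were seeded at 400 cells/well in medium containing 20 nM camptothecin, exposed to pin-transferred compounds, and grown at 37 °C for at least 48 hr. Viability was read as ATP luminescence.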
miR-21 reporter – raises the signal of a miR-21 reporter | Potency, µM (doses to about 38.3 µM), for inactives: top-dose reporter change, positive = more light | HeLa miR-21 FLuc reporter, luciferase, 48 h | AID 2288 | 340,000 tested, under 10 active; active = well fitted rising curve with a large enough effect; inconclusive = small, poorly fitted or top-dose-only effect; inactive = no such curve, though single readings can be large or run the other way;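 also: % of control where 0% means no effect; miR-21 action dims this reporter so a rising signal means less miR-21 action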
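HeLa cells endogenously expressing miR-21, stably carrying CMV-driven firefly luciferase with a downstream miR-21 binding site, 2000 cells/well. Titrations up to approximately 40 uM, 48 hours; luciferase luminescence read.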
uPA generation – cell surface uPA generation inhibition. cell surface uPA generation assay, qHTS. 0.31% of 330,000 active. Potency, µM (titrated, usually from 38.3 µM), without a hit: at the top dose activity change, negative = inhibition, hits mostly inhibitors; active means well fitted inhibition curve with a large enough effect; inconclusive means small, poorly fitted or top-dose-only effect; inactive means no such curve, though single readings can be large or run the other way; tested in mouse RAW 264.7 cells; further: potency means the concentration at half of the fitted maximal effect; on the % scale 0 is the no-effect control and ±100 the full control effect; nearly all actives have a fitted effect of over 55% in size
Active calls of the source: *; u = inconclusive; x = no result given; [ ] = remark or other dose. Unless noted, the call rests on the fitted dose curve; in most records, active means well fitted curve in the direction sought with a large enough effect; inconclusive means small, poorly fitted or top-dose-only effect, or another doubt; inactive means no such curve, though single readings can be large; an effect the other way counts as inactive or inconclusive.

1. Cc1ccc(Cl)cc1N1CCN(CCCNc2ncnc3onc(-c4ccc(F)cc4)c23)CC1
2. Cc1ccc(Cl)cc1N1CCN(c2ncnc3onc(-c4ccc(F)cc4)c23)CC1
3. Cc1ccc(CN2CCC(CNc3ncnc4onc(-c5ccc(F)cc5)c34)CC2)cc1
4. Cc1ccc(CNc2ncnc3onc(-c4ccc(F)cc4)c23)cc1
5. Fc1ccc(-c2noc3ncnc(NCC4CCN(Cc5ccc(Cl)cc5)CC4)c23)cc1
6. Fc1ccc(-c2noc3ncnc(NCc4cccc(Cl)c4)c23)cc1
7. O=C(NCc1ccccc1)c1cccnc1N1CCOCC1
8. CN(CC(=O)Nc1ccccc1Cl)CC(=O)N(C)c1c(N)n(Cc2ccccc2)c(=O)[nH]c1=O

Compound	1	2	3	4	5	6	7	8
DT40 TDP1 no CPT	18.4µM*	-6.7%	23.1µM*	u	13µM*	u	1.3%	-18.2%
TDP1 block	-4.2%	2.1%	6.3%	-3.2%	5.3%	3.2%	2.2%	0.0%
TDP1 cell CPT	14.6µM*	-0.5%	-39.8%	u	u	-4.4%	-21.8%	-4.0%
miR-21 reporter	-2.0%	-0.5%	9.2%	-0.1%	29.5%	-2.2%	-2.1%	x
uPA generation	x	x	x	x	x	x	0.3%	2.3%

9. CC(C)(C)OC(=O)N1CCC(c2cc(=O)n3[nH]cc(C(=O)Nc4ccc(F)c(Cl)c4)c3n2)CC1
10. CC(C)(C)OC(=O)N1CCC(c2cc(=O)n3[nH]c(-c4ccc(Cl)cc4)cc3n2)CC1
11. O=C(c1cc2nc(-c3ccccc3)cc(C(F)(F)F)n2n1)N1CCN2CCCC2C1 (stereo not drawn)
12. O=C(c1ccccc1)N1CCN(C(=O)c2nn3c(C(F)(F)F)cc(-c4ccccc4)nc3c2Br)CC1
13. O=C(c1nn2c(C(F)(F)F)cc(-c3ccccc3)nc2c1Cl)N1CCN2CCCC2C1 (stereo not drawn)
14. COc1cccc(N2CCN(C(=O)c3cnc4c(-c5ccccc5)c(C)nn4c3C)CC2)c1
15. CCOC(=O)Cc1c(C)nc2c(-c3ccc(OC)cc3)c(C)nn2c1C
16. COc1ccc(N2CCN(C(=O)CCc3c(C)nc4c(-c5ccccc5)c(C)nn4c3C)CC2)cc1

Compound	9	10	11	12	13	14	15	16
DT40 TDP1 no CPT	5.5%	23.1µM*	u	18.4µM*	u	u	23.1µM*	18.4µM*
TDP1 block	-4.8%	2.5%	5.2%	5.2%[0.0935 µM]	2.8%	8.4%	4.7%	3.5%
TDP1 cell CPT	1.5%	20.6µM*	-23.8%	u	20.6µM*	14.6µM*	u	23.1µM*
miR-21 reporter	-0.7%	-1.7%	-2.9%	-2.4%	3.9%	-3.7%	6.1%	24.8%
uPA generation	12.3%	8.2%	0.4%	-4.7%	-7.5%	x	2.7%	x

17. Cc1nn2c(C)c(C(=O)N3CCN(c4ccccc4F)CC3)cnc2c1-c1ccc(F)cc1
18. COc1ccc(-c2c(C)nn3c(Cl)c(C)c(C)nc23)cc1
19. CN(CC(=O)Nc1ccc(Cl)cc1)C(=O)CNC(=O)c1ccc2c(c1)OCO2
20. O=C(Nc1nc2ccc(F)cc2s1)Oc1ccccc1
21. CC[C@]12CCCN3CCc4c(n(c5ccccc45)C(=O)C1)[C@H]32
22. Brc1ccc(CNc2cc3c(cc2Br)OCCO3)cc1
23. CCN1CC=C2C(C1)C(c1ccc(Cl)s1)C(C#N)=C(N)C2(C#N)C#N (stereo not drawn)
24. O=C1CSC(=Nc2cccc(Cl)c2Cl)N1

Compound	17	18	19	20	21	22	23	24
DT40 TDP1 no CPT	u	u	-0.8%	-35.9%	9.44µM*	u	u	-11.9%
TDP1 block	-1.9%	x	x	10.5%	9.5%	10.3%	6.2%	1.3%
TDP1 cell CPT	u	-5.9%	1.3%	-12.7%	10.6µM*	5.2%	16.4µM*	-4.0%
miR-21 reporter	-1.2%	2.7%	x	-14.0%	x	-23.0%	-4.0%	-6.0%
uPA generation	x	-3.4%	-26.1%	-2.2%	x	6.1%	-2.4%	0.5%

Complete entries, looked up by structure. Values in the order: DT40 TDP1 no CPT, TDP1 block, TDP1 cell CPT, miR-21 reporter, uPA generation
CCN1CC=C2C(C1)C(c1ccc(Cl)s1)C(C#N)=C(N)C2(C#N)C#N (stereo not drawn) is listed with u, 6.2%, 16.4µM*, -4.0%, -2.4%
O=C1CSC(=Nc2cccc(Cl)c2Cl)N1 is listed with -11.9%, 1.3%, -4.0%, -6.0%, 0.5%
Cc1nn2c(C)c(C(=O)N3CCN(c4ccccc4F)CC3)cnc2c1-c1ccc(F)cc1 is listed with u, -1.9%, u, -1.2%, x

(continued)
25. COC(=O)c1sc2nc3c(c(-c4cccs4)c2c1N)CCCC3
26. CCCCOc1ccc(C2c3c(-c4ccccc4O)n[nH]c3C(=O)N2Cc2ccncc2)cc1OC (stereo not drawn)
27. CCCOc1ccc(C2c3c(-c4ccccc4O)n[nH]c3C(=O)N2CCc2ccccc2)cc1OCC (stereo not drawn)
28. COc1cccc(C2c3c(-c4ccccc4O)n[nH]c3C(=O)N2Cc2cccnc2)c1 (stereo not drawn)
29. CCOc1ccc(C2c3c(-c4cc(C)ccc4O)n[nH]c3C(=O)N2Cc2cccnc2)cc1OCC (stereo not drawn)
30. O=C1c2[nH]nc(-c3ccccc3O)c2C(c2cccc(OCc3ccccc3)c2)N1CCCO (stereo not drawn)
31. CCCN1C(=O)c2[nH]nc(-c3ccccc3O)c2C1c1ccc(OCc2ccccc2)c(OC)c1 (stereo not drawn)
32. COc1cc(C2c3c(-c4ccccc4O)n[nH]c3C(=O)N2CCO)ccc1OCc1ccccc1 (stereo not drawn)

Compound	25	26	27	28	29	30	31	32
DT40 TDP1 no CPT	u	23.1µM*	13µM*	u	-18.5%	u	16.4µM*	25.9µM*
TDP1 block	x	9.3%	8.6%	7.0%	8.6%	4.9%	11.0%	1.2%
TDP1 cell CPT	-14.1%	u	11.6µM*	u	0.8%	u	16.4µM*	-28.2%
miR-21 reporter	-5.2%	u	15.6%	1.4%	-26.1%	21.5%	u	0.4%
uPA generation	1.3%	x	x	x	x	x	x	x

33. CCOC(=O)COc1ccccc1/C=C1/NC(=O)NC1=O
34. COc1ccc(C(c2c(O)cc(C)n(Cc3ccco3)c2=O)N2CCN(c3ccccc3)CC2)cc1 (stereo not drawn)
35. CC1(C(=O)NS(=O)(=O)c2ccc(F)cc2F)CCN1C(=O)CC1CCCCC1 (stereo not drawn)
36. Cc1cc(SCC(=O)c2ccc(O)c(O)c2)n2nc(C)c(-c3ccccc3)c2n1
37. Cc1cc(C)nc(SCC(=O)c2ccc(O)c(O)c2)n1
38. CN(C)CCCNc1ncnc2sc(-c3ccccc3)cc12
39. CCOC(CNc1ncnc2sc(-c3ccccc3)cc12)OCC
40. CCCCN(CCO)c1ncnc2sc(-c3ccccc3)cc12

Compound	33	34	35	36	37	38	39	40
DT40 TDP1 no CPT	5.6%	-19.4%	1.9%	14.6µM*	u	16.4µM*	-28.8%	16.4µM*
TDP1 block	-0.6%	5.4%	x	x	x	x	x	x
TDP1 cell CPT	10.9%	-22.9%	5.7%	18.4µM*	u	u	u	u
miR-21 reporter	-7.9%	5.2%	x	19.6%	-37.4%	-6.7%	-14.4%	-19.9%
uPA generation	-0.3%	x	x	-11.0%	u	u	-5.8%	-2.0%

41. NC(=O)c1cc(C(=O)Cc2ccccc2)c[nH]1
42. COc1ccc(F)cc1S(=O)(=O)NCc1cc(=O)n(C)c(=O)n1C
43. Cc1[nH]ccc(=O)c1Cc1c(Cl)cccc1Cl
44. Cc1nc(C(Cl)(Cl)Cl)nc2[nH]ccc(=O)c12
45. COc1ccccc1NCCC(=O)OCC(=O)NC1CCCCCC1
46. Cc1ccc(CCNC(=O)CCn2nc(-c3ccc(C)cc3)ccc2=O)cc1
47. Cc1ccc(-c2ccc(=O)n(Cc3c(F)cccc3Cl)n2)cc1

Compound	41	42	43	44	45	46	47
DT40 TDP1 no CPT	-9.0%	21.4%	2.1%	16.4µM*	-3.9%	u	18.4µM*
TDP1 block	x	2.5%	x	-0.6%	0.0%	2.6%	x
TDP1 cell CPT	9.1%	10.5%	26.0%	u	-7.2%	23.1µM*	u
miR-21 reporter	-7.5%	-0.6%	-3.7%	24.8%	-10.0%	-9.7%	-26.0%
uPA generation	2.3%	-5.6%	1.4%	-10.0%	-0.1%	x	-4.7%
